The entries are a selection whose mix differs from that of the whole data set. Some of these compounds have results that are not shown, active ones among them. Calls of active or inactive are those of the source.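 The calls were made as follows: active = inhibition above the mean inhibition across the screen plus 3 SD (cut at about 25% in these data); inactive = the rest.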

Amino acid sequences for entries named in this document (tags omitted).
UniProt Q13093, whole entry: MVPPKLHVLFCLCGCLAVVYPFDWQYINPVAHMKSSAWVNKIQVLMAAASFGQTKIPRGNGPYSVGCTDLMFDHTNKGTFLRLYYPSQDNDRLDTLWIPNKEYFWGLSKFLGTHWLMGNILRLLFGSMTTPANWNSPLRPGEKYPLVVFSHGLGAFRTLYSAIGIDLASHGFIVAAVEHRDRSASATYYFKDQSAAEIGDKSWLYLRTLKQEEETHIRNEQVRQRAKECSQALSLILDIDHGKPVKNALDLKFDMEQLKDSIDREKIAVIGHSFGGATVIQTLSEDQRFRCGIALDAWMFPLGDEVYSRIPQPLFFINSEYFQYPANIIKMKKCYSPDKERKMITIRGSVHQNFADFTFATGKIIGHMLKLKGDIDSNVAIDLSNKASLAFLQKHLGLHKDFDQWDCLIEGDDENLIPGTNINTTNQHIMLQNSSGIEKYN

A word on the inhibition: it is the change of the read-out against control, counted positive when it falls.

This experiment addresses Platelet-activating factor acetylhydrolase (Homo sapiens) (UniProt Q13093). As to the kind of experiment: pPAFAH enzyme inhibitors, primary screen, biochemical, fluorescence polarization, human (AID 463082).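 Also: inhibitors block binding of the rhodamine activity-based probe so polarization drops; 0% = enzyme with DMSO and 100% = wells lacking pPAFAH.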 Particulars: recombinant pPAFAH, FP-rhodamine probe fluorescence polarization; at 3.39 µM; hits give high values. In general terms: In fluorescence polarisation assays a small probe gives low polarisation when free and higher when bound to something large.
In the case of `CN(C)C1(CNC(=O)c2ccc(Br)cc2)CCCCC1`, the inhibition is inactive: 5.42%.

Take `COc1cc(C(=O)NCC2(N(C)C)CCCCC2)c([N+](=O)[O-])cc1OC`: the inhibition is inactive: 0.24%.

`COc1cccc(C(=O)NCC2(N3CCCCC3)CCCCC2)c1`: the inhibition is inactive: -0.83%.

Consider `COc1ccc(Cl)cc1C(=O)NCC1(N(C)C)CCCCC1`, for which the inhibition is inactive: 2.26%.

Consider `O=C(NCC1(N2CCCCC2)CCCCC1)c1cccc(Cl)c1`, for which the inhibition was inactive: -3.61%.

Take `O=C(OC1CN2CCC1CC2)C(CO)(c1ccccc1)c1ccccc1` (centres undefined): the inhibition is inactive: 3.33%.

Take `COc1ccc(Br)c(C(=O)NCC2(N3CCCCC3)CCCCC2)c1`: the inhibition is inactive: -2.17%.

On to `CN(C)c1cccc(C(=O)NCC2(N(C)C)CCCCC2)c1`, for which the inhibition was inactive: 3.37%.

As to `CC(C)Oc1ccc(C(=O)NCC2(N(C)C)CCCCC2)cc1`, the inhibition was inactive: 2.08%.

For `O=C(NCC1(N2CCCCC2)CCCCC1)c1cc([N+](=O)[O-])ccc1Cl`, the inhibition is inactive: 3.9%.

On to `CN1[C@@H]2CC[C@H]1CC(OC(=O)C(O)(c1ccccc1)c1ccccc1)C2` (some centres undefined), for which the inhibition is inactive: 7.46%.

`CC(C)N1C(=O)CC2(CCN(CCOC(=O)C(O)(c3ccccc3)c3ccccc3)CC2)C1=O`: the inhibition was inactive: -0.77%.

Consider `CCN(CC)CC(C)C(C)OC(=O)C(O)(c1ccccc1)c1ccccc1` (centres undefined), for which the inhibition is inactive: 0.21%.

With `COc1cc(SC)ccc1C(=O)NCC1(N(C)C)CCCCC1`, the inhibition was inactive: -0.76%.

As for `Cc1ccc(C(=O)NCC2(N3CCCCC3)CCCCC2)cc1`, the inhibition was inactive: 1.45%.

With `Cc1ccccc1C(=O)NCC1(N2CCCCC2)CCCCC1`, the inhibition was inactive: -1.55%.

On to `CN(C)c1ccc(C(=O)NCC2(N(C)C)CCCCC2)cc1`, for which the inhibition is inactive: -0.31%.

For `CN(C)C1CCCC1OC(=O)C(O)(c1ccccc1)c1ccccc1` (centres undefined), the inhibition was inactive: 5.67%.

Consider `C=CCN1CCN(CCOC(=O)C(O)(c2ccccc2)c2ccccc2)CC1`, for which the inhibition was inactive: 0.13%.

Consider `O=C(NCC1(N2CCCCC2)CCCCC1)c1cc(F)c(F)cc1Cl`, for which the inhibition was inactive: 3.15%.

For the molecule `CCN1CCCC(OC(=O)C2(O)c3ccccc3C=Cc3ccccc32)C1` (centres undefined), the inhibition is inactive: -0.48%.

Turning to `Cc1cc(C(=O)NCC2(N3CCCCC3)CCCCC2)ccc1[N+](=O)[O-]`, the inhibition is inactive: -3.63%.

With `O=C(NCC1(N2CCCCC2)CCCCC1)c1cccc(Br)c1`, the inhibition was inactive: -0.81%.

With `COc1ccc(C(=O)NCC2(N(C)C)CCCCC2)cc1`, the inhibition was inactive: 0.35%.

(Values after PubChem BioAssay AID463082 (The Scripps Research Institute Molecular Screening Center, 2010).)
